SMILES strings stand for the structures.

The chains behind the UniProt entries cited, without tags or fusion partners.
UniProt P49286, whole entry: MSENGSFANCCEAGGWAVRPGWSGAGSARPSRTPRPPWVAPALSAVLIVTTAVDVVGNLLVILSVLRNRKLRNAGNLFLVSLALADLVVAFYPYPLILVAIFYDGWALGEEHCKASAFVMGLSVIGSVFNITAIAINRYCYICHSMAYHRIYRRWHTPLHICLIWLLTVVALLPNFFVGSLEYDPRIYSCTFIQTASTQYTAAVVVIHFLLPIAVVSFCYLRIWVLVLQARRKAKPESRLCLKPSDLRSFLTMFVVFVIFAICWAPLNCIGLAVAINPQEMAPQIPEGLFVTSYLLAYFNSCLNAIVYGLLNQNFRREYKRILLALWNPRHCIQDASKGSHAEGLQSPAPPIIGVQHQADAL

This is an account of results in US6908931B2, “Tetrahydroisoquinoline derivatives as melatonin MT2 antagonists” (Bristol-Myers Squibb Company, priority 2003, dated 2005).

The target of the experiment is human MT2 receptor (Homo sapiens, UniProt P49286). As to the kind of experiment: Melatonin receptor binding assay (MT2), 2-[125I]-iodomelatonin. To be noted: read-out: MT2 IC50; membrane homogenates of NIH-3T3 cells expressing MT2; 2-[125I]-iodomelatonin 0.2 nM; 37° C., 1 hour.
What is called IC50 is the concentration at which inhibition is half-maximal. With `O=C(c1ccno1)N1CCc2cc3c(cc2C1CCc1ccc(F)cc1)OCC3` (stereo not shown), the IC50 is 100 to 1000 nM. As for `CCC(=O)N1CCc2cc3c(cc2C1CCc1ccc(F)cc1)OCC3` (stereo not shown), the IC50 was under 100 nM. Turning to `COc1ccc(C(=O)N2CCc3cc4c(cc3C2CCc2ccc(F)cc2)OCC4)cc1` (stereo not shown), the half-inhibitory concentration (IC50) lay within 100 to 1000 nM. Turning to `CC(=O)N1CCc2c(ccc3c2CCO3)C1CC(c1ccccc1)c1ccccc1` (stereo not shown), the IC50 was in the range of 100 to 1000 nM. As for `CC(=O)N1CCc2cc3c(cc2C1CCc1ccc(F)cc1)OCC3` (stereo not shown), the IC50 is under 100 nM. The value for `COC(=O)N1CCc2cc3c(cc2C1CCc1ccc(F)cc1)OCO3` (stereo not shown) was 100 to 1000 nM.

On to `COc1cc2c(cc1Br)CCN(C(C)=O)C2CC(c1ccccc1)c1ccccc1` (stereo not shown) [Example 22], for which the IC50 is under 100 nM. For `O=C(c1ccccc1)N1CCc2cc3c(cc2C1CCc1ccc(F)cc1)OCC3` (stereo not shown), the half-maximal inhibitory concentration (IC50) was 100 to 1000 nM. In the case of `O=C(CCl)N1CCc2cc3c(cc2C1CCc1ccc(F)cc1)OCC3` (stereo not shown), the half-maximal inhibitory concentration (IC50) was under 100 nM.

With `CCCC(=O)N1CCc2cc3c(cc2C1CCc1ccc(F)cc1)OCC3` (stereo not shown), the IC50 is under 100 nM. For `O=C(C1CC1)N1CCc2cc3c(cc2C1CCc1ccc(F)cc1)OCC3` (stereo not shown), the IC50 was under 100 nM. Consider `COCC(=O)N1CCc2cc3c(cc2C1CCc1ccc(F)cc1)OCC3` (stereo not shown), for which the concentration for half-maximal inhibition (IC50) was under 100 nM. In the case of `COc1cc2c(cc1OC)C(CCc1cccc3c1CCO3)N(C(C)=O)CC2` (stereo not shown), the IC50 was under 100 nM.

Take `CCC(=O)N1CCc2cc3c(cc2C1CC(c1ccccc1)c1ccccc1)OCO3` (stereo not shown): the IC50 is 100 to 1000 nM. Regarding `O=C(C1CCCC1)N1CCc2cc3c(cc2C1CCc1ccc(F)cc1)OCC3` (stereo not shown), the IC50 lay within 100 to 1000 nM.

`CC(C)(C)CC(=O)N1CCc2cc3c(cc2C1CCc1ccc(F)cc1)OCC3` (stereo not shown): the IC50 is under 100 nM.
